We go through two compounds from ChEMBL document CHEMBL1128457, “New antihistamines: substituted piperazine and piperidine derivatives as novel H1-antagonists” (J Med Chem, 1995).

Amino acid sequences for entries named in this document (tags omitted).
UniProt P31389, whole entry, looked up: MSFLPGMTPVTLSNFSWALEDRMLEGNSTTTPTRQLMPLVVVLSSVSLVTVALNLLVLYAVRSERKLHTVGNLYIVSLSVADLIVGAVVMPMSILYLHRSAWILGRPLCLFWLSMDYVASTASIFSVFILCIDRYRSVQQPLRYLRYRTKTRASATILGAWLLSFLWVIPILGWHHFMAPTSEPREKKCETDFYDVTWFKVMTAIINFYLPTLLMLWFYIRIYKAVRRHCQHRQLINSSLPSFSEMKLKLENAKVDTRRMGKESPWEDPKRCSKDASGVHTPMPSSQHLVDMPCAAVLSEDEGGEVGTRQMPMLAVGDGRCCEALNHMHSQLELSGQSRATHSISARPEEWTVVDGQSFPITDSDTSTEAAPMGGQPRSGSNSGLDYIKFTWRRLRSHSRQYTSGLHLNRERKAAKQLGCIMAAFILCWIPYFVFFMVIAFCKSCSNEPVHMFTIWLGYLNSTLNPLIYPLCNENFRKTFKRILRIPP

The target of this experiment is Histamine H1 receptor (Cavia porcellus) (UniProt P31389). The experiment is described as follows: In vitro antagonism of histamine-induced contraction of guinea pig ileum at 1x10E-7M. It is filed as functional, tissue-based.

Each structure is given as a SMILES string.

Consider `Cn1c(=O)c2c(ncn2CCN2CCC(C(c3ccccc3)c3ccccc3)CC2)n(C)c1=O`, for which the inhibition (in general, the change of the read-out against control, counted positive when it falls) came to 86%. As to `Cn1c(=O)c2c(ncn2CCN2CCN(C(c3ccc(F)cc3)c3ccc(F)cc3)CC2)n(C)c1=O`, the inhibition was determined as 34%.
